Results from patent publication US10214765B2, “Cell-permeable probes for identification and imaging of sialidases” (Academina Sinica, priority 2012, dated 2019).

Chains of the proteins cited; added tags and fusions are not shown.
UniProt P03470, whole entry, looked up: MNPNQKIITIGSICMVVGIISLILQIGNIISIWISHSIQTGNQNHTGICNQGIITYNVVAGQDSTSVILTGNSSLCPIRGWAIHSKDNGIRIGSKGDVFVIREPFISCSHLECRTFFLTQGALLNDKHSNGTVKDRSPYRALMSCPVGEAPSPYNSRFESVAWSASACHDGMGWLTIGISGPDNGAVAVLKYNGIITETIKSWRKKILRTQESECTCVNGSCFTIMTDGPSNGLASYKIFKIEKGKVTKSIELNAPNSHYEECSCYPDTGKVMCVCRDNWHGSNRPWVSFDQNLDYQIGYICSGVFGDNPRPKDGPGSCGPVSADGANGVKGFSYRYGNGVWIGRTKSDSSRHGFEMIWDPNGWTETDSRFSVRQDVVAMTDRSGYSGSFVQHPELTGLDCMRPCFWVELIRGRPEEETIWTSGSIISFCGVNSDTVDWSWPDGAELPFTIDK

Target: influenza neuraminidase (A/WSN/1933/H1N1) (Influenza A virus, UniProt P03470)
Assay: DFSA adduct formation on influenza virus, SDS-PAGE, click detection
Format: binding, influenza virus A/WSN/1933/H1N1
Settings: neuraminidase at the surface of influenza virus; FIG. 2B

With `C#CCCC(=O)NC1C(O)C(F)C(F)(C(=O)O)OC1[C@H](O)[C@H](O)CO` (stereo partly drawn) [DFSA-5-yne, 5-(Pent-4-ynamido)-2,3,5-trideoxy-3-fluoro-D-erythro-β-L-manno-non-2-ulopyranosylonic fluoride] the fluorosialosyl-enzyme adduct formation was “formed a DFSA adduct”.
